Reference: ChEMBL document CHEMBL1949670, “Probes for narcotic receptor mediated phenomena. 44. Synthesis of an N-substituted 4-hydroxy-5-(3-hydroxyphenyl)morphan with high affinity and selective μ-antagonist activity” (Eur J Med Chem, 2012)

Sequences of proteins named here, by UniProt entry; tags and fusion partners are left off.
UniProt P35372, whole entry, looked up: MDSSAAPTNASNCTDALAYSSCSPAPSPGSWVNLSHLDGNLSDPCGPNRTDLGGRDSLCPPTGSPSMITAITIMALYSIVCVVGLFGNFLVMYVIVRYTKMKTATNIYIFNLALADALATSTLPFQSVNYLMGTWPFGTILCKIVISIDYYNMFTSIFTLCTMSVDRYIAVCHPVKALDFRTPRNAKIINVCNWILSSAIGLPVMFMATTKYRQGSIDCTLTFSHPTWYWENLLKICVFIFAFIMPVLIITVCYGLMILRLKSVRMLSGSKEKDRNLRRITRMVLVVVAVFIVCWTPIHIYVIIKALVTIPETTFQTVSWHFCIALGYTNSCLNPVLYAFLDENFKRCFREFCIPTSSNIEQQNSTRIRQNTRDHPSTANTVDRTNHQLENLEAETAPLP
UniProt P41143, whole entry, looked up: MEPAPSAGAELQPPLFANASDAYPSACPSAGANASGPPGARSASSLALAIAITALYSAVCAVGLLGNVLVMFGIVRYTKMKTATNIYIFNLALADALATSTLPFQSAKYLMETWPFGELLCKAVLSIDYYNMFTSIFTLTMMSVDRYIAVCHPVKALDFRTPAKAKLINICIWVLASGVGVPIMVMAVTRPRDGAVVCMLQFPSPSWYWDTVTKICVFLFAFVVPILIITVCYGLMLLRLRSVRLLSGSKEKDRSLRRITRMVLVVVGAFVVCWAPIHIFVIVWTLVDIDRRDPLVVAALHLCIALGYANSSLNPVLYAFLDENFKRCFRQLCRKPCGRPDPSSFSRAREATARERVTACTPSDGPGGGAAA

Columns and labels:
Mu-type opioid receptor = Mu-type opioid receptor (Homo sapiens, UniProt P35372); settings: cho
[1] = target: Delta-type opioid receptor (Homo sapiens, UniProt P41143); assay: Displacement of [3H]-DADLE from human delta opioid receptor expressed in CHO cells membrane after 2 hrs by liquid scintillation counting

`CN(C(=O)Cc1ccccc1)[C@H]1CC[C@@]2(CCCO2)C[C@@H]1N1CCCC1` showed a Ki (Mu-type opioid receptor) of 2.37 µM and a Ki [1] of 12.5 µM.
